From EP4821917A1, “PROLIFERATING CELL NUCLEAR ANTIGEN INHIBITOR, AND PREPARATION METHOD THEREFOR, INTERMEDIATE THEREOF, PHARMACEUTICAL COMPOSITION THEREOF AND USE THEREOF” (dated 2026)

Test system: all test tumor cell lines
Experiment: Broad-spectrum antitumor activity assay, summary over all cell lines
Settings: comparison in words
Protocol: (§1) According to the test methods described above, the antitumor activities of the test compounds and AOH-1996 in various tumor cell lines were tested (Table 5).

SMILES	antitumor activity relative to compound 93 (MTB-1993)
[2H]C([2H])([2H])c1cc2c(cc1Oc1cc(F)ccc1NC(=O)CNC(=O)c1cccc3ccccc13)CCO2	comparable

Test system: HL-60
Experiment: Antitumor activity assay (CellTiter-Glo), HL-60
Settings: Table 3; HL-60; Max. Concentration 10 µM; 48 h; CTG
Protocol: (§2) Table 2 Cell Culture Conditions
(§3) • a) The cell cryopreservation tube was taken out from liquid nitrogen and placed in a water bath at 37°C for rapid thawing. After the surface of the cryopreservation tube was wiped with 75% ethanol, the cryopreservation tube was transferred into a biosafety cabinet. • b) The cryopreserved cells were transferred into a 15-mL sterile centrifuge tube. Culture medium in a volume 10 times that of the cryopreservation solution was added, and centrifuged at 1,200 rpm for 5 min. • c) The culture medium in the centrifuge tube was discarded. An appropriate volume of fresh culture medium (Table 2) was added. The cells were re-suspended, transferred into a culture flask and cultured in a cell culture incubator at 37°C. The culture medium was replaced the next day.
(§4) • a) For adherent cells at the logarithmic growth phase, the culture medium was discarded. The cells were washed with 8 mL of PBS two times, and the PBS was discarded. • b) 5 mL of a dissociation solution containing 0.25% trypsin was added, and the cells were incubated at 37°C for 3 to 5 min. […] The cells were gently pipetted to detach them from the culture surface, thereby obtaining a cell suspension for subsequent passaging and experimentation.
(§5) • a) The cells were harvested directly and collected by centrifugation.
(§6) • a) Preparation of cell suspension • i. the culture medium was removed from the culture flask; • ii. the cells were rinsed with PBS two times; • iii. trypsin was added to dissociate the cells, and after the dissociation was terminated by adding culture medium, the cells were collected by centrifugation; the suspension cells were collected directly; • iv. the cells were re-suspended in culture medium, counted and adjusted to an appropriate concentration. • b) The cell suspension was added to a 384-well plate at a volume of 40 µL per well. The number of cells per well was shown in Table 2. • c) The cells were incubated at 37°C in a 5% CO2 incubator for 48 h.
(§7) • a) Preparation of gradient dilution solutions of positive compounds and test compounds: A 10 mM stock solution of each compound was prepared using DMSO. Subsequently, a 3-fold serial gradient dilution was carried out with DMSO to generate a total of 10 concentration points for each compound.
(§8) • a) 40 nL of compound was transferred using an Echo550 system. The cell suspension was added to the cell culture plate at a volume of 40 µL per well. • b) The cells were transferred to an incubator and incubated for 48 h.
(§9) • a) The cell culture plate was removed and allowed to equilibrate at room temperature for 30 min. • b) The working solution for the CTG assay was prepared according to the instructions of the Promega kit and equilibrated to 25°C in an incubator. • c) 30 µL of CellTiter-Glo was transferred to each well of the cell culture plate. After incubation at room temperature for 15 min, the chemiluminescence was read using Ensight.
(§10) The inhibition ratio (% inhibition) was calculated using the following formula: %Inhibition = 100%−100% × (LumSample −LumLC)/(LumHC −LumLC) [formula] • LumHC: reading of cells in the control group treated with 1‰ DMSO • LumSample: reading of cells treated with compound • LumLC: reading of cells in blank culture medium
(§11) The IC50 was calculated using XLfit (5.3.1.3) by fitting the data to formula 201: y = (A+((B-A)/(1+((x/C)^D)))) • A: Bottom • B: Top • C: IC50 (Rel IC50) • D: Hill Slope Table 3 Inhibitory Activity of Compounds Against HL-60

SMILES	IC50 [µM]
O=C(CNC(=O)c1cccc2ccccc12)Nc1ccccc1Oc1ccc2scnc2c1	6.86
Cc1cc2c(cc1Oc1ccccc1NC(=O)CNC(=O)c1cccc3ccccc13)CCO2	0.0673
[2H]C([2H])([2H])c1cc2c(cc1Oc1cc(F)ccc1NC(=O)CNC(=O)c1cccc3ccccc13)CCO2	0.0631

Same assay, conditions: Table 5 (broad-spectrum assay); HL-60

SMILES	IC50 [µM]
Cc1cc2c(cc1Oc1ccccc1NC(=O)CNC(=O)c1cccc3ccccc13)CCO2	0.0626
[2H]C([2H])([2H])c1cc2c(cc1Oc1cc(F)ccc1NC(=O)CNC(=O)c1cccc3ccccc13)CCO2	0.0786

Same assay, conditions: comparison in words

SMILES	antitumor activity (HL-60) relative to the corresponding compounds 44 and 93
[2H]C([2H])([2H])c1cc2c(cc1Oc1cc(F)ccc1NC(=O)CNC(=O)c1cccc3ccccc13)CCO2	comparable

Same assay, conditions: fold relative to AOH-1996

SMILES	higher inhibitory activity against HL-60 as compared to Comparative Compound 2 (AOH-1996)
Cc1cc2c(cc1Oc1ccccc1NC(=O)CNC(=O)c1cccc3ccccc13)CCO2	approximately nine times higher

Test system: Human glioma (U-251)
Experiment: Broad-spectrum antitumor activity assay, U-251
Settings: Table 5
Protocol: as §3, with “The cells were re-suspended, transferred into a culture flask and cultured in a cell culture incubator at 37°C. The culture medium was replaced the next day.” left out
(§12) • a) Preparation of cell suspension • i. the culture medium was removed from the culture flask; • ii. the cells were rinsed with PBS two times; • iii. trypsin was added to dissociate the cells, and after the dissociation was terminated by adding culture medium, the cells were collected by centrifugation; the suspension cells were collected directly; • iv. the cells were re-suspended in culture medium, counted and adjusted to an appropriate concentration. • b) The cell suspension was added to a 384-well plate at a volume of 40 µL per well. […]
(§13) The IC50 was calculated using XLfit (5.3.1.3) by fitting the data to formula 201: y = (A+((B-A)/(1+((x/C)^D)))) • A: Bottom • B: Top • C: IC50 (Rel IC50) • D: Hill Slope Table 3 Inhibitory Activity of Compounds Against HL-60 […]

SMILES	IC50 [µM]
Cc1cc2c(cc1Oc1ccccc1NC(=O)CNC(=O)c1cccc3ccccc13)CCO2	0.0665

Test system: Human ovarian cancer (OVCAR-3)
Experiment: Broad-spectrum antitumor activity assay, OVCAR-3
Settings: Table 5
Protocol: as §3, §4, §5, §6, §7, §8, §9, §10, §13

SMILES	IC50 [µM]
Cc1cc2c(cc1Oc1ccccc1NC(=O)CNC(=O)c1cccc3ccccc13)CCO2	0.154
[2H]C([2H])([2H])c1cc2c(cc1Oc1cc(F)ccc1NC(=O)CNC(=O)c1cccc3ccccc13)CCO2	0.0863

Test system: Non-small cell lung cancer (A-549)
Experiment: Broad-spectrum antitumor activity assay, A-549
Settings: Table 5
Protocol: as §3
(§14) • a) For adherent cells at the logarithmic growth phase, the culture medium was discarded. The cells were washed with 8 mL of PBS two times, and the PBS was discarded. • b) 5 mL of a dissociation solution containing 0.25% trypsin was added, and the cells were incubated at 37°C for 3 to 5 min. […]
as §12
(§15) • a) The cell culture plate was removed and allowed to equilibrate at room temperature for 30 min. • b) The working solution for the CTG assay was prepared according to the instructions of the Promega kit and equilibrated to 25°C in an incubator. • c) 30 µL of CellTiter-Glo was transferred to each well of the cell culture plate. After incubation at room temperature for 15 min, the chemiluminescence was read using Ensight. […]

SMILES	IC50 [µM]
Cc1cc2c(cc1Oc1ccccc1NC(=O)CNC(=O)c1cccc3ccccc13)CCO2	0.113

Test system: not listed separately
Experiment: Pharmacokinetic study, single gavage to mice
Settings: comparison in words
Protocol: Pharmacokinetic studies on administration of comparative compound 2 (AOH-1996), compound 100 (MTB-2006) and compound 99 via single gavage to female CB-17 SCID (B-Ces1c KO) mice
Prior to the first administration, animals were grouped based on body weight. The animals were weighed before administration, and the dosing volume was calculated based on the body weight.
After each formulation was prepared, two aliquots of the clear dosing solution (top and bottom layers) or three aliquots of the suspension (top, middle, and bottom layers) were collected. The formulation was analyzed by HPLC-UV to evaluate the accuracy of the formulation concentration.
Plasma samples were collected at 0.167, 0.333, 0.5, 1, 2, 4, 6, and 12 h after administration.
Whole blood collection and preparation of plasma samples: Whole blood was collected from the saphenous vein of each animal (approximately 0.02 mL per time point) into pre-cooled commercial blood collection tubes (containing EDTA-K2 as an anticoagulant) at each time point. Within 10 seconds after collection of the whole blood, a stabilizer was added at a ratio of whole blood to 400 mM DDV (19:1, v:v). The samples were placed on wet ice till centrifugation. Blood samples collected at each time were kept on wet ice prior to centrifugation, and centrifuged at approximately 4°C and 3,200 g for 10 min to prepare plasma samples. Subsequently, the plasma samples were transferred to low-adsorption tubes, flash-frozen on dry ice, and stored at a temperature of -60°C or lower till LC-MS/MS. The sample processing was carried out under wet ice conditions.
The concentration of the formulation for administration was determined by the HPLC-UV method. The calibration curve consisted of at least six concentration levels. Each sample was analyzed in duplicate. The measured concentration should fall within 80% to 120% of the theoretical formulation concentration; otherwise, the pharmacokinetic parameters should be calculated based on the actual dose.
Under non-GLP conditions, an LC-MS/MS method for the quantitative determination of the test compounds in biological matrices was established. Table 6. Pharmacokinetic Data of AOH-1996, Compound 99, and MTB-2006

SMILES	Cmax and half-life as compared to compound AOH-1996
[2H]C([2H])([2H])c1cc2c(cc1Oc1cc(F)ccc1NC(=O)CNC(=O)c1cccc3ccccc13)CCO2	significantly improved

Same assay, conditions: conclusion from the pharmacokinetic results (Table 6), relative to AOH-1996

SMILES	biological stability
[2H]C([2H])([2H])c1cc2c(cc1Oc1cc(F)ccc1NC(=O)CNC(=O)c1cccc3ccccc13)CCO2	better biological stability

Same assay, conditions: single gavage, CB-17 SCID (B-Ces1c KO) mice, plasma; dose not given

SMILES	AUC 0-last [ng·h/mL]	Cmax [ng/mL]	T1/2 [h]
[2H]C([2H])([2H])c1cc2c(cc1Oc1cc(F)ccc1NC(=O)CNC(=O)c1cccc3ccccc13)CCO2	457	98.5	3.73

Same assay, conditions: single gavage, mice

SMILES	drug exposure relative to AOH-1996	increase of drug exposure as compared to compound 99 [%]
[2H]C([2H])([2H])c1cc2c(cc1Oc1cc(F)ccc1NC(=O)CNC(=O)c1cccc3ccccc13)CCO2	approximately three times	32.5

Test system: Human breast cancer (MCF7)
Experiment: Broad-spectrum antitumor activity assay, MCF7
Settings: Table 5
Protocol: as §3, §4, §5, §6, §7, §8, §9, §10, §13

SMILES	IC50 [µM]
Cc1cc2c(cc1Oc1ccccc1NC(=O)CNC(=O)c1cccc3ccccc13)CCO2	0.0914
[2H]C([2H])([2H])c1cc2c(cc1Oc1cc(F)ccc1NC(=O)CNC(=O)c1cccc3ccccc13)CCO2	0.0813

Test system: Human prostate cancer (PC-3)
Experiment: Broad-spectrum antitumor activity assay, PC-3
Settings: Table 5
Protocol: as §3, §14, §12, §15

SMILES	IC50 [µM]
Cc1cc2c(cc1Oc1ccccc1NC(=O)CNC(=O)c1cccc3ccccc13)CCO2	0.0796

Test system: Human peripheral blood mononuclear cell (Human PBMC)
Experiment: Cytotoxicity toward normal cells, Human PBMC
Settings: Table 5; normal Human PBMC; highest test concentration 10 µM
Protocol: as §3, §4, §5, §6, §7, §8, §9, §10, §11, §1

SMILES	IC50 [µM]
Cc1cc2c(cc1Oc1ccccc1NC(=O)CNC(=O)c1cccc3ccccc13)CCO2	> 10
[2H]C([2H])([2H])c1cc2c(cc1Oc1cc(F)ccc1NC(=O)CNC(=O)c1cccc3ccccc13)CCO2	> 10

Same assay, conditions: at the highest test concentration of 10 µM

SMILES	cytotoxicity toward normal human peripheral blood mononuclear cells (PBMCs)
Cc1cc2c(cc1Oc1ccccc1NC(=O)CNC(=O)c1cccc3ccccc13)CCO2	no significant cytotoxicity
[2H]C([2H])([2H])c1cc2c(cc1Oc1cc(F)ccc1NC(=O)CNC(=O)c1cccc3ccccc13)CCO2	no significant cytotoxicity

Test system: colon cancer (HCT-116)
Experiment: Broad-spectrum antitumor activity assay, HCT-116
Settings: Table 5
Protocol: as §3, with “The cells were re-suspended, transferred into a culture flask and cultured in a cell culture incubator at 37°C. The culture medium was replaced the next day.” left out
as §12, §13

SMILES	IC50 [µM]
Cc1cc2c(cc1Oc1ccccc1NC(=O)CNC(=O)c1cccc3ccccc13)CCO2	0.0258

Test system: NCI-H522
Experiment: Antitumor activity assay (CellTiter-Glo), NCI-H522
Settings: Table 4; NCI-H522; Max. Concentration 10 µM; 48 h; CTG
Protocol: as §2, §3, §4, §5, §6, §7, §8, §9, §10, §11

SMILES	IC50 [µM]
O=C(CNC(=O)c1cccc2ccccc12)Nc1ccccc1Oc1ccc2scnc2c1	2.04

Same assay, conditions: comparison in words

SMILES	antitumor activity (NCI-H522) relative to AOH-1996
O=C(CNC(=O)c1cccc2ccccc12)Nc1ccccc1Oc1ccc2scnc2c1	lower activity

Test system: Human renal cancer (786-O)
Experiment: Broad-spectrum antitumor activity assay, 786-O
Settings: Table 5
Protocol: as §3, §4, §5, §6
• a) Preparation of gradient dilution solutions of positive compounds and test compounds: A 10 mM stock solution of each compound was prepared using DMSO. […]
as §15, §13

SMILES	IC50 [µM]
Cc1cc2c(cc1Oc1ccccc1NC(=O)CNC(=O)c1cccc3ccccc13)CCO2	0.0634
[2H]C([2H])([2H])c1cc2c(cc1Oc1cc(F)ccc1NC(=O)CNC(=O)c1cccc3ccccc13)CCO2	0.0782
